99 compounds from PubChem BioAssay AID652048 (National Center for Advancing Translational Sciences (NCATS), 2013) can be followed below.

By UniProt entry, the sequences of proteins in these tests, tags left out.
UniProt P35462, whole entry, looked up: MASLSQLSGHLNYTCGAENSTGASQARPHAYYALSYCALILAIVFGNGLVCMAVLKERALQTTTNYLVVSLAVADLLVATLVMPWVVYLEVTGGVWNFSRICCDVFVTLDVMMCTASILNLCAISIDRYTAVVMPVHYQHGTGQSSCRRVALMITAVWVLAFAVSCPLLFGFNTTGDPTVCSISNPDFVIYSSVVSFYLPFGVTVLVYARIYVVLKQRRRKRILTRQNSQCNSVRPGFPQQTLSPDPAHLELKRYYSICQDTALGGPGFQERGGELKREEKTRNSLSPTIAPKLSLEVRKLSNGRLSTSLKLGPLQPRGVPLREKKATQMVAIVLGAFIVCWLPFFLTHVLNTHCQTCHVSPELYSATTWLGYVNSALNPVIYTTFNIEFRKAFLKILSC

Where “and” joins values, the source holds several entries; their conditions need not be identical. Equal entries are not always repeated. The entries are a selection whose mix differs from that of the whole data set. Calls of active or inactive are those of the source. Rule as the data show it: active = max activation above about 30%; inactive = the rest.

In this assay the target is D(3) dopamine receptor (Homo sapiens) (UniProt P35462). Briefly: qHTS of D3 Dopamine Receptor Agonist: qHTS. Also: 0% is about no effect. Particulars: D3R DiscoveRx beta-arrestin cells, luminescence, 90 min; hits give high values. An excerpt:
D3 DARs represent a very important target for the treatment of several neuropsychiatric disorders. Indeed, one of the most promising therapeutic applications for the D3 DAR is in the area of addiction and related disorders. […] These findings have been observed with a number of addictive substances including cocaine, amphetamine, nicotine, and alcohol. […] Antagonism of the D3 DAR may also be therapeutic in the treatment of schizophrenia or psychosis. […] Since the D3 DAR is expressed in areas of the CNS associated with the control of mood and emotion, it has been hypothesized that selective antagonism of the D3 DAR may be effective in treating psychosis without inducing the motor side effects typically seen with D2 DAR antagonists.
This part of the project aims to discover novel agonist.
NIH Chemical Genomics Center [NCGC]
NIH Molecular Libraries Probe Centers Network [MLPCN]
Assay Submitter (PI): David Sibley, NINDS
Freshly passaged cells are plated in 1536 well white, solid bottom plates at a density of 1500 cells/well in 3microl of complete media. After an overnight incubation at 37 degrees C in 5% CO2, cells are loaded with 23nl of test compound from the compound library (as well as dopamine controls) using a 1536 pintool and incubated at 37 degrees C for 90 minutes. Two microliters of DiscoveRx reagent is then added to all cells, and they are incubated for an additional 30 - 60 minutes at room temperature. Following incubation, luminescence is measured on a ViewLux CCD-based luminometer reader using a 20 sec exposure time.
As to `O=[N+]([O-])c1ccc(Nc2ccc(Oc3ccc([N+](=O)[O-])cc3[N+](=O)[O-])cc2)c([N+](=O)[O-])c1`, the max activation is inactive: 2.68%.

With `O=P(Nc1ccccn1)(c1cccc2ccccc12)c1cccc2ccccc12`, the max activation is inactive: -1.15%.

With `Cc1cc(SC(NC=O)C(Cl)(Cl)Cl)ncn1` (centres undefined), the max activation is inactive: 0.0745%.

Consider `CCOC(=O)Nc1cccc([As](=O)(O)O)c1`, for which the max activation is inactive: -5.24%.

With `CCCCOc1ccc(C(=O)NCC2(N3CCCCC3)CCCCC2)cc1OC`, the max activation is inactive: -15.2%.

In the case of `Cc1cc(SC(NC(=O)c2ccccc2)C(Cl)(Cl)Cl)nc(C(C)C)n1` (centres undefined), the max activation is inactive: 2.41%.

Turning to `COP(=O)(OC)N1CC1c1ccccc1` (centres undefined), the max activation is inactive: 2.3%.

As to `CC1CCNP(=O)(N(CCCl)CCCl)O1` (centres undefined), the max activation is inactive: 1.33%.

Regarding `CCOC(=O)Nc1ccc([As](=O)(O)O)c(O)c1`, the max activation is inactive: -9.47%.

Take `O=C(O)C(O)c1ccc(N(CCCl)CCCl)cc1` (centres undefined): the max activation was inactive: 1.3%.

As to `CCC(C)N(CC(C)C)C(=S)SC(NC(C)=O)C(Cl)(Cl)Cl` (centres undefined), the max activation is inactive: 2.89%.

Take `CCOC(=O)c1ccc(NC(=O)C(C)(CCl)SC)cc1` (centres undefined): the max activation is inactive: -3.17%.

On to `O=C(OC1CN2CCC1CC2)c1cccc([N+](=O)[O-])c1` (centres undefined), for which the max activation was inactive: -1.93%.

For `CSc1ccc(Nc2c([N+](=O)[O-])cc([N+](=O)[O-])cc2[N+](=O)[O-])cc1`, the max activation is inactive: -10.1%.

`O=C(COc1ccccc1)OC1CN2CCC1CC2` (centres undefined): the max activation was inactive: 0.998%.

Turning to `O=C(Nc1ccncc1[N+](=O)[O-])c1ccc([N+](=O)[O-])cc1[N+](=O)[O-]`, the max activation is inactive: 0.627%.

Turning to `O=C(O)C(=O)c1ccc(N(CCCl)CCCl)cc1`, the max activation is inactive: -11.1%.

On to `COP1(=S)c2c(C)nn(CCC#N)c2N=C(c2ccc(F)cc2)N1C` (centres undefined), for which the max activation is inactive: -7.51%.

`COC(=O)C1(C)COP(=O)(N2CCCC2)OC1` (centres undefined): the max activation is inactive: -3.76%.

As for `COc1ccc(N/C(=N/P(=O)(N2CCOCC2)N2CCOCC2)N2CCOCC2)cc1`, the max activation was inactive: 4.59%.

As to `O=[N+]([O-])c1cc(Oc2ccc([N+](=O)[O-])cc2C(F)(F)F)cc([N+](=O)[O-])c1`, the max activation is inactive: 7.46%.

For `COc1ccc2nc(NP(=O)(c3ccccc3)c3ccccc3)sc2c1`, the max activation was inactive: 0.813%.

Consider `COc1cc(I)ccc1[As](=O)(O)O`, for which the max activation was inactive: 3.31%.

As to `O=P1(N(CCCl)CCCl)OCCCN1CCCl` (centres undefined), the max activation was inactive: -0.648%.

`O=P1(N(CCCl)CCCl)Nc2ccccc2N1`: the max activation is inactive: 2.95%.

In the case of `O=C(OC1CN2CCC1CC2)C12CC3CC(CC(C3)C1)C2` (centres undefined), the max activation was inactive: 3.11%.

Regarding `Cc1cc(=O)[nH]c(N[N+](=O)[O-])n1`, the max activation was inactive: -4.53%.

In the case of `Cc1c2c(nc3ccccc13)SC(C(Cl)Cl)C2` (centres undefined), the max activation is inactive: -2.52%.

In the case of `CC(C)NC(=O)NP(=O)(Oc1ccccc1)Oc1ccccc1`, the max activation is inactive: 1.77%.

Take `O=C(OC1CN2CCC1CC2)c1cccc2[nH]cnc12` (centres undefined): the max activation was inactive: -3.92%.

Consider `CCN(CC)C(=S)SC(NC=O)C(Cl)(Cl)Cl` (centres undefined), for which the max activation is inactive: -2.08%.

Regarding `O=[N+]([O-])c1cc([N+](=O)[O-])c(-c2ccn[nH]2)s1`, the max activation was inactive: -3.8%.

As to `COC(=O)C1(C)COP(=O)(N2CCCCCC2)OC1` (centres undefined), the max activation was inactive: 7.09%.

For `CC(C)c1ccc(OP(=O)(Nc2ccccn2)Oc2ccccc2F)cc1` (centres undefined), the max activation is inactive: 4.99%.

As for `ClCCSc1nnc(-c2cccnc2)o1`, the max activation was inactive: 1.64%.

For `Cc1ccc2nc3c(c(C)c2c1)CC(C(Cl)Cl)S3` (centres undefined), the max activation is inactive: 6.11%.

As to `[N-]=[N+]=NC1CCCCC1NC(=O)c1cc([N+](=O)[O-])cc([N+](=O)[O-])c1` (centres undefined), the max activation was inactive: -9.1%.

On to `Cc1ccc(OP(=O)(Nc2ccc([N+](=O)[O-])cn2)Oc2ccc(C)cc2)cc1`, for which the max activation is inactive: 1.77%.

For `O=[As](O)(c1ccc(O)cc1)c1ccccc1O`, the max activation was inactive: -11.2%.

On to `C[As](=O)(O)c1cccc(C(=O)O)c1`, for which the max activation is inactive: -0.361%.

For `O=[N+]([O-])c1ccc(-c2cc([N+](=O)[O-])c(O)c([N+](=O)[O-])c2)cc1`, the max activation was inactive: -12.8%.

Consider `COc1cc(C(=O)NCC2(N3CCOCC3)CCCCC2)ccc1OCC(C)C`, for which the max activation is inactive: -15.4%.

`O=[N+]([O-])c1ccc2c(c1)nnn2O`: the max activation was inactive: -13.6%.

Consider `CN(C)C(=O)c1cc([N+](=O)[O-])cc2c1-c1c(cc([N+](=O)[O-])cc1[N+](=O)[O-])C2=O`, for which the max activation was inactive: -15.6%.

As for `CN(C(=O)Cc1ccc(Cl)c(Cl)c1)[C@H]1CC[C@@]2(CCCO2)C[C@@H]1N1CCCC1`, the max activation was inactive: -2.99% and inactive: -16.3%.

For `N#CCCN(C(=O)COC(=O)C(O)(c1ccccc1)c1ccccc1)c1ccc(F)cc1`, the max activation was inactive: -20.9%.

On to `CCOP1(=S)c2c(C)nn(CCC#N)c2N=C(c2ccc(F)cc2)N1C` (centres undefined), for which the max activation was inactive: 2.8%.

With `CN(C(=O)Cc1ccccc1)[C@@H]1CC[C@]2(CCCO2)C[C@H]1N1CCCC1`, the max activation was inactive: 0.834%.

For the compound `NC(=O)Nc1ccc([As](=O)(O)O)cc1`, the max activation was inactive: -10.7% and inactive: -5.5%.

`Nc1ccccc1[As](=O)(O)c1ccccc1`: the max activation is inactive: 12.9%.

`O=C(O)COc1ccc([As](=O)(O)O)cc1[N+](=O)[O-]`: the max activation is inactive: -19.1%.

`CS(=O)(=O)c1cc([N+](=O)[O-])c2no[n+]([O-])c2c1`: the max activation was inactive: 0.941%.

Consider `CCOP1(=S)c2c(C)nn(CCC#N)c2N=C(c2ccccc2F)N1C` (centres undefined), for which the max activation is inactive: -4.95%.

With `O=P(Nc1nccs1)(Oc1ccccc1)Oc1ccccc1`, the max activation was inactive: 3.44%.

As for `O=P(Nc1nccs1)(c1ccccc1)c1nc2ccccc2s1` (centres undefined), the max activation was inactive: -10.2%.

As for `COc1cc(C2NCCC3(OCCO3)C2(C)C)cc(OC)c1OC` (centres undefined), the max activation was inactive: -20.9%.

For `CCOP(=O)(Nc1cccc2ccccc12)OCC`, the max activation was inactive: -8.94%.

Regarding `CCCOP(=S)(Nc1nc(N)cc(=O)[nH]1)OCCC`, the max activation is inactive: -1.64%.

With `Nc1cccc2c([As](=O)(O)O)cccc12`, the max activation is inactive: 0.665%.

Take `Cc1ccc(NCCc2c([N+](=O)[O-])cc([N+](=O)[O-])cc2[N+](=O)[O-])cc1`: the max activation is inactive: -4.6%.

As for `Cc1cccc(OCC(=O)OC2CN3CCC2CC3)c1` (centres undefined), the max activation was inactive: 1.93%.

For `O=[As](O)(c1cccc(O)c1)c1cccc(O)c1`, the max activation is inactive: 3.79%.

Regarding `O=[As](O)(O)c1cccnc1`, the max activation was inactive: 7.8%.

In the case of `COc1cc(C(=O)NCC2(N3CCOCC3)CCCCC2)cc(Cl)c1OC(C)C`, the max activation was inactive: -1.11%.

With `CS(=O)(=O)c1ccc(Cl)c(NC(=O)COC(=O)C(O)(c2ccccc2)c2ccccc2)c1`, the max activation was inactive: 2.11%.

With `O=C(OC1CN2CCC1CC2)c1ccc(Cl)cc1` (centres undefined), the max activation is inactive: -2.95%.

Take `CC1(CBr)Cn2c(nc3ccccc3c2=O)S1` (centres undefined): the max activation was inactive: 0.761%.

On to `CC(C)/C=N\N=C(\N)N[N+](=O)[O-]`, for which the max activation was inactive: -9.33%.

On to `CN(C(=O)Cc1ccc(Cl)c(Cl)c1)[C@@H]1CCCC[C@H]1N1CCCC1`, for which the max activation was inactive: -54.2%.

Consider `COc1ccccc1CNC(=O)COC(=O)C(O)(c1ccccc1)c1ccccc1`, for which the max activation is inactive: 2.81%.

On to `O=P1(N(CCCl)CCCl)NCCC(C(F)(F)F)O1` (centres undefined), for which the max activation is inactive: 7.18%.

For the compound `Clc1n[nH]nc1-c1nn[nH][15n]1`, the max activation is inactive: -6.66%.

As to `CC(C)(C)C(=O)NC(Sc1ncccn1)C(Cl)(Cl)Cl` (centres undefined), the max activation is inactive: 4.29%.

With `CCOP(=O)(Nc1ccc(C)cn1)OCC`, the max activation was inactive: -3.25%.

In the case of `CN(CCCl)Cc1cc(Cl)c(NC2=NCCN2)c(Cl)c1`, the max activation was inactive: -5.42%.

With `O=P1(Nc2ccccn2)COc2ccccc2OC1`, the max activation is inactive: 0.126%.

As to `CCC1=CC2Cc3nc4ccc(Cl)cc4c(N)c3C(C1)C2` (centres undefined), the max activation was inactive: -5.11%.

As to `CCOP(=O)(NC(=NC(C)c1ccccc1)NC(C)c1ccccc1)OCC` (centres undefined), the max activation was inactive: 4.19%.

As to `O=[As](O)(c1cccs1)c1cccs1`, the max activation is inactive: -0.341%.

As for `Cc1ccc(OCC(=O)OC2CN3CCC2CC3)cc1` (centres undefined), the max activation is inactive: 1.66%.

As for `O=P1(Nc2ccc(Br)cn2)COc2ccccc2OC1`, the max activation was inactive: 0.359%.

As to `NS(=O)(=O)c1cccc(NC(=O)COC(=O)C(O)(c2ccccc2)c2ccccc2)c1`, the max activation was inactive: 2.34%.

Regarding `Nc1cccc([As](=O)(O)c2ccccc2)c1`, the max activation is inactive: 6.79%.

Consider `O=P1(Nc2ncccn2)COc2ccccc2OC1`, for which the max activation is inactive: 0.977%.

`Cc1ccc(S(=O)(=O)N(CCCN)CCCc2c(C)nc(N)[nH]c2=O)cc1`: the max activation was inactive: -18.1%.

Take `O=C(/C=C/c1ccccc1)OC1CN2CCC1CC2` (centres undefined): the max activation was inactive: -16.7%.

With `CCCC1OP(=O)(Nc2ccccc2)OCC1CC` (centres undefined), the max activation is inactive: -5.76%.

Turning to `CN(C)C1(CNC(=O)c2ccc(S(C)(=O)=O)cc2)CCCCC1`, the max activation was inactive: 5.08%.

Take `Cc1nn(-c2ccccc2)c2c1P(=O)(N1CCOCC1)N(C)C(c1ccccc1)=N2` (centres undefined): the max activation was inactive: -1.04%.

In the case of `CC1CCC(C(C)C)C(OP(=O)(Nc2ccccn2)c2ccccc2)C1` (centres undefined), the max activation was inactive: 3.13%.

For the compound `Cc1ccc(C(=O)OC2CN3CCC2CC3)cc1` (centres undefined), the max activation was inactive: 2.28%.

Turning to `C(Cc1nn[nH]n1)Cc1nn[nH]n1`, the max activation is inactive: 0.199%.

Regarding `Nc1ccc([As](=O)(O)c2ccc([N+](=O)[O-])cc2)cc1`, the max activation is inactive: -22.3%.

On to `O=C(OC1CN2CCC1CC2)c1cccc(Cl)c1` (centres undefined), for which the max activation is inactive: 17.5%.

Regarding `O=[N+]([O-])c1ccc(O)c(/C=N/Nc2ccc([N+](=O)[O-])cc2[N+](=O)[O-])c1`, the max activation is inactive: 17.1%.

Take `O=[N+]([O-])c1ncn(CCn2cnc([N+](=O)[O-])n2)n1`: the max activation was inactive: -5.05%.

For the compound `CC(=O)NC(SC(=S)N(C)C)C(Cl)(Cl)Cl` (centres undefined), the max activation was inactive: -8.53%.

In the case of `O=[As](O)(c1ccccc1)c1ccc(O)cc1`, the max activation was inactive: -7.61%.

Regarding `O=P(Nc1nc2ccccc2s1)(c1ccccc1)c1ccccc1`, the max activation was inactive: -9.83%.
